esBAF inh: SWI/SNF esBAF complex inhibition | mouse ES cells, Bmi1-luciferase knock-in reporter, 24 h; 100% = twice the neutral-well signal | reporter increase, % at 12.5 µM | 350,000 tested, 2% active | AID 602393; in the data active means activation above about 40%;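 further: 0% = median of the plate's neutral control wells and 100% = double that signal; a rise in the Bmi1 reporter signal indicates esBAF inhibition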
PGC1a acetyl inh: lowers PGC1a acetylation signal in U2OS cells; AlphaScreen anti-acetyl-lysine; with virally co-expressed GCN5 acetyltransferase; 350,000 tested, 0.17% active; inhibition, % at 15.6 µM;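 active means every replicate shows inhibition of at least 40%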;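 further: 0% = neutral control wells and 100% = positive control wells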
PglD DTNB: inhibitors of Campylobacter jejuni PglD acetyltransferase | purified PglD enzyme, DTNB colorimetric CoA detection | AID 602405 | 360,000 tested, 0.098% active | inhibition, % at 12.5 µM; in the data active means inhibition above about 16%, passing the limit was not always enough
E-sel inducer: E-selectin induction on HUVECs. activation, % at 7.58 µM. P16581. HUVEC E-selectin immunofluorescence imaging; normalized: neutral wells 0, TNF-alpha wells 100. 260,000 tested, 0.37% active;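 active means mean E-selectin-positive cell signal at least 10% of the positive control, reached in at least 60% of replicates, without over 20% cell loss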
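Test system: HUVEC; input: 3,000 HUVEC/well; measured by: immunofluorescence imaging; read-out: % PE-positive cells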
C2C12 statin: suppression of simvastatin myotoxicity; C2C12 myotubes + simvastatin, ATP luminescence, 48 h; scaled: DMSO 0, geranylgeraniol control 100; rescue of ATP level, % at 7.49 µM; 330,000 tested, 0.78% active;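 active means mean ATP rescue above about 67%, or every replicate alone reaching that limit, limit read from the data, passing the limit was not always enough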;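 further: myotubes were challenged with 10 µM simvastatin during compound exposure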
Yeast UUG start: alters start codon recognition fidelity in yeast | S. cerevisiae UUG-firefly luciferase reporter, luminescence/redox ratio | activity score, % at 18.7 µM | hit rate 0.13% among 350,000 | AID 602363;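 active means replicate mean at a twofold rise or more, about +100% in these data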;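 further: firefly luciferase made from a UUG start codon reports start codon fidelity; reporter light over untreated wells divided by growth signal over untreated wells; some hits fall short of that in this replicate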
Starred values were filed as active, the others as inactive; / = not tested or not shown; ! = not active in a repeat. In the library only some 2.8% were active in any assay of this set; here they are far more common.

SMILES	esBAF inh	PGC1a acetyl inh	PglD DTNB	E-sel inducer	C2C12 statin	Yeast UUG start
Cc1cccc(NS(=O)(=O)c2ccc(S(=O)(=O)N3CCCC3)cc2)c1	4	-11	-1	206*	11	-10
Nn1c(SCC(=O)Nc2ccc(S(=O)(=O)N3CCCC3)cc2)nnc1C(F)(F)F	0	15	1	/	107*	9
Cn1cnnc1SCC(=O)Nc1ccc(S(=O)(=O)N2CCCC2)cc1	1	-29	3	/	-5	-9
Cc1ccc(S(=O)(=O)c2cccc(S(=O)(=O)N3CCOCC3)c2)cc1S(=O)(=O)N1CCOCC1	/	7	-1	/	/	-8
O=C(COc1cccc(C(F)(F)F)c1)Nc1ccc(S(=O)(=O)N2CCCC2)cc1	-3	9	4	/	116*	11
Cc1ccc(S(=O)(=O)c2cccc(S(=O)(=O)N3CCCC3)c2)cc1S(=O)(=O)N1CCCC1	3	-17	-2	/	90*	-14
CC=Cc1ccc2n(c1=O)C[C@@H]1[C@@H](CO)[C@H](C(=O)NCCOC)[C@H]2N1Cc1ccccc1OC (mixture of isomers)	/	/	/	0	/	/
Cc1cccc(OCCC(=O)Nc2ccc(S(=O)(=O)N3CCCC3)cc2)c1	0	-28	-1	/	109*	-3
O=S(=O)(Nc1cccc2cccnc12)c1ccc(S(=O)(=O)N2CCCC2)cc1	-3	1	3	/	70*	-31
C[C@@H]1CN([C@H](C)CO)C(=O)c2cccc(NC(=O)Nc3ccc4c(c3)OCO4)c2O[C@@H]1CN(C)C(=O)Nc1ccc(C(F)(F)F)cc1	3	2	-1	60*	/	3
C[C@@H]1CN([C@@H](C)CO)C(=O)c2cccc(NC(=O)Nc3ccc(C(F)(F)F)cc3)c2O[C@@H]1CN(C)C(=O)Nc1ccc2c(c1)OCO2	-4	-1	4	0	-11	7
Cc1noc(C)c1NC(=O)N(C)C[C@H]1Oc2c(NC(=O)Nc3ccc4c(c3)OCO4)cccc2C(=O)N([C@H](C)CO)C[C@@H]1C	5	2	0	0	83*!	-2
CCCN(C)C[C@@H]1Oc2ncc(-c3ccccc3)cc2C(=O)N([C@H](C)CO)C[C@@H]1C	2	-11	5	90*	17	-7
CCCN(C)C[C@@H]1Oc2ncc(-c3ccccc3)cc2C(=O)N([C@@H](C)CO)C[C@H]1C	-3	-12	/	/	2	/
Cc1ccc(-c2cnc3c(c2)C(=O)N([C@@H](C)CO)C[C@@H](C)[C@H](CN(C)C)O3)cc1	-1	109*	-2	-1	16	-11
CCC(=O)N(C)C[C@H]1Oc2ncc(Br)cc2C(=O)N([C@H](C)CO)C[C@H]1C	0	9	-1	0	-1	-8
COc1cccc(-c2cnc3c(c2)C(=O)N([C@H](C)CO)C[C@H](C)[C@H](CN(C)Cc2cccc(C)c2)O3)c1	-4	-2	3	1	117*	5
Cc1ccc(-c2cnc3c(c2)C(=O)N([C@@H](C)CO)C[C@@H](C)[C@@H](CN(C)C)O3)cc1	1	3	1	0	1	-11
CCC(=O)N(C)C[C@H]1Oc2ncc(Br)cc2C(=O)N([C@@H](C)CO)C[C@H]1C	-1	12	-1	90*	-19	-10
O=C(Nc1ccccc1)N1CCCCN2[C@@H](CO)[C@H](c3ccc(C4=CCCCC4)cc3)[C@@H]2C1	-3	-13	6	-1	-18	55
CC(=O)N[C@H]1C[C@@H]2O[C@@H](CO)CC[C@@H]2O[C@@H]1CCc1ccc(-c2ccc(F)cc2)cc1	/	-12	/	/	/	/
C[C@@H]1CN([C@H](C)CO)S(=O)(=O)c2ccc(Br)cc2O[C@H]1CN(C)Cc1cccnc1	4	-2	0	0	-29	3
Cc1noc(C)c1S(=O)(=O)Nc1cccc2c1O[C@@H](CN(C)Cc1ccncc1)[C@@H](C)CN([C@H](C)CO)C2=O	0	4	-3	-4	/	-1
COCC(=O)Nc1ccc2c(c1)C(=O)N(C)[C@H]1CC[C@H](CC(=O)NC3CCCC3)O[C@H]1CO2	2	2	2	0	19	-24
C[C@@H]1CN([C@H](C)CO)C(=O)Cc2cc(NS(=O)(=O)c3ccc(Cl)cc3)ccc2O[C@@H]1CN(C)Cc1ccc(-c2ccccc2)cc1	1	-27	/	0	62	/

Shown with bars between the fields: two of the compounds above.
structure | esBAF inh | PGC1a acetyl inh | PglD DTNB | E-sel inducer | C2C12 statin | Yeast UUG start
CCC(=O)N(C)C[C@H]1Oc2ncc(Br)cc2C(=O)N([C@@H](C)CO)C[C@H]1C | -1 | 12 | -1 | 90* | -19 | -10
O=C(Nc1ccccc1)N1CCCCN2[C@@H](CO)[C@H](c3ccc(C4=CCCCC4)cc3)[C@@H]2C1 | -3 | -13 | 6 | -1 | -18 | 55

Continuation.
SMILES	esBAF inh	PGC1a acetyl inh	PglD DTNB	E-sel inducer	C2C12 statin	Yeast UUG start
COc1cccc(CNC(=O)c2cc3c(cc2Cl)N2CCCCCC2=NS3(=O)=O)c1	/	-12	/	100*	/	/
COc1cccc(CNC(=O)c2ccc3c(c2)S(=O)(=O)N=C2CCCCCN23)c1	/	-4	4	/	/	-12
COc1ccc2c3c(n(C)c2c1)[C@@H](CO)N(C(=O)C1CCC1)CC31CCN(C(=O)Nc2cccc(F)c2)CC1	/	/	/	0	/	/
CCOc1ccc(-c2nc3n(c(=O)c2C#N)CCCS3)cc1	13	4	2	/	103*	-20
COC(=O)c1ccc(N2C(=O)CC(N(C)Cc3ccccc3)C2=O)cc1 (configuration not stated)	2	11	-1	/	87*	-11
CCOc1ccc(N2C(=O)CC(N(C)Cc3ccccc3)C2=O)cc1 (configuration not stated)	/	/	/	-1	/	/
C[C@H](CO)N1C[C@H](C)[C@@H](CN(C)Cc2ccc(Cl)c(Cl)c2)Oc2ccc(NC(=O)Nc3ccccc3)cc2CC1=O	0	4	1	0	26	3
Cc1cc(C(=O)CN2C(=O)NC3(CCCCC3)C2=O)c(C)n1Cc1ccc2c(c1)OCO2	51*	-4	-5	/	40	-4
COc1ccc2c3c([nH]c2c1)[C@H](CO)N(C(=O)c1cccc(F)c1)CC31CCN(C(=O)CC2CC2)CC1	/	-2	/	0	/	/
O=C1C(N2CCOCC2)=C(n2nnc3ccccc32)C(=O)c2ccccc21	9	61*	2	/	-74	7
COc1ccc2c3c(n(C)c2c1)[C@@H](CO)N(C(=O)c1cccnc1)CC31CCN(S(C)(=O)=O)CC1	/	2	/	0	/	/
COC(=O)c1cccc(-n2nnnc2SCC(=O)Nc2cc(C)on2)c1	0	-9	-9	/	61	-1
CC(=O)c1cccc(-n2nnnc2SCC(=O)NNC(=O)C(C)C)c1	-2	85*	-3	/	5	-14
CSc1ncnc2[nH]ncc12	3	-4	/	4	-10	/
CCCCCCCSc1ncnc2[nH]ncc12	70*	-6	2	0	-7	-4
COc1ccc(N2C(=O)c3cccc4c(N(C)CCO)ccc(c34)C2=O)cc1	43*	/	-3	/	-5	-8
COc1ccc(N2C(=O)c3cccc4cccc(c34)C2=O)cc1	-4	9	4	/	0	-9
CCN(CCn1cccn1)C(=O)c1cc(COc2ccccc2SC)on1	/	1	-3	0	/	2

A few values from the results shown:
PGC1a acetyl inh with COc1cccc(CNC(=O)c2ccc3c(c2)S(=O)(=O)N=C2CCCCCN23)c1 → -4
Yeast UUG start with COC(=O)c1ccc(N2C(=O)CC(N(C)Cc3ccccc3)C2=O)cc1 (configuration not stated) → -11
esBAF inh with C[C@H](CO)N1C[C@H](C)[C@@H](CN(C)Cc2ccc(Cl)c(Cl)c2)Oc2ccc(NC(=O)Nc3ccccc3)cc2CC1=O → 0
E-sel inducer with COc1ccc2c3c([nH]c2c1)[C@H](CO)N(C(=O)c1cccc(F)c1)CC31CCN(C(=O)CC2CC2)CC1 → 0
PGC1a acetyl inh with CSc1ncnc2[nH]ncc12 → -4
